# Results reported in the supplement of paper PMC13380429.
# For some assays here: Most of the highest values are listed elsewhere, so they are rarer here than in the full data. For some assays here: The hits were mostly taken out for another list; the other results follow.
# Experiments:
# [1] = system: Vero E6 infected with SARS-CoV-2; assay: morphology score (similarity to uninfected cells); higher = more like uninfected cells; details: 10 µM; 24 h
# [2] = system: Vero E6 infected with SARS-CoV-2; assay: SARS-CoV-2 infection rate relative to infected DMSO; higher = more infection, active = 60 or less; details: 10 µM; 24 h
smiles,measurement,setting,value
COc1cc(Br)c(C[N+]2(CCOCCC3CCC4CC3C4(C)C)CCOCC2)cc1OC (configuration not stated) [pinaverium],morphology score,[1],-0.139
same,SARS-CoV-2 infection rate,[2],inactive: 112%
